# Paper PMC9837035 (Nature Communications, 2023)
# “And” between values parts separate entries of the source, which are not always exact repeats. Equal values may be shown once.
# Legend:
# [1] = test system: β- and γ-globin mRNAs in CD34+-derived cells; assay: RT-qPCR of β- and γ-globin in CD34+-derived cells; format: cell-based, human
# Procedure: HUDEP-2 cells and HiDEP-1 cells were grown in Stemline II Hematopoietic Stem Cell Expansion Medium (Sigma) supplemented with 50 ng/mL recombinant stem cell factor (SCF; R&D systems), 3 IU/mL recombinant erythropoietin (EPO; Kyowa Kirin), 1 μM dexamethasone (Dex; Sigma), and 1 μg/mL doxycycline (Sigma). A total of 1 × 10^5 human CD34^+ progenitor cells derived from bone marrow or peripheral blood (Lonza) were cultured on 35-mm dishes (BD Falcon) in StemSpan SFEMII medium with 50 ng/mL SCF, 5 IU/mL EPO, and 10 ng /mL interleukin 3 (IL-3; R&D systems). The medium was changed on day 4 to SCF, EPO, and 1 μM Dex, and the cells were transferred to 60-mm dishes (BD Falcon). Seven days after the onset of differentiation, cells were counted and 1 × 10^6 cells were re-plated on 100-mm dishes (BD Falcon) with SCF, EPO, and Dex. The rat myoblast cell line H9c2, HEK293T, and PLAT-E cells were maintained in Dulbecco’s modified Eagle’s medium (Thermo Fisher Scientific) supplemented with 10% heat-inactivated fetal bovine serum (FBS) and penicillin/streptomycin. All cells were cultured at 37 °C under 5% CO2.
# (§1) Total cellular RNA was prepared using the Tissue Total RNA Mini Kit (FAVORGEN), and cDNA was synthesized using ReverTra Ace Master Mix (TOYOBO). Expression of target genes was analyzed using THUNDERBIRD SYBR qPCR Mix (TOYOBO) on a CFX Connect Real Time System (Bio-Rad). The qPCR data were acquired on CFX Maestro (Bio-Rad). Primers are listed in Supplementary Table 10. GAPDH was used as a reference. Primers were purchased from INTEGRATED DNA TECHNOLOGIES or FASMAC.
# G9a = biological target: T1, G9a (Homo sapiens, UniProt Q96KQ7); assay: Radioisotope-based methyltransferase assay (selectivity)
# T1 sequence (Q96KQ7 1-1210): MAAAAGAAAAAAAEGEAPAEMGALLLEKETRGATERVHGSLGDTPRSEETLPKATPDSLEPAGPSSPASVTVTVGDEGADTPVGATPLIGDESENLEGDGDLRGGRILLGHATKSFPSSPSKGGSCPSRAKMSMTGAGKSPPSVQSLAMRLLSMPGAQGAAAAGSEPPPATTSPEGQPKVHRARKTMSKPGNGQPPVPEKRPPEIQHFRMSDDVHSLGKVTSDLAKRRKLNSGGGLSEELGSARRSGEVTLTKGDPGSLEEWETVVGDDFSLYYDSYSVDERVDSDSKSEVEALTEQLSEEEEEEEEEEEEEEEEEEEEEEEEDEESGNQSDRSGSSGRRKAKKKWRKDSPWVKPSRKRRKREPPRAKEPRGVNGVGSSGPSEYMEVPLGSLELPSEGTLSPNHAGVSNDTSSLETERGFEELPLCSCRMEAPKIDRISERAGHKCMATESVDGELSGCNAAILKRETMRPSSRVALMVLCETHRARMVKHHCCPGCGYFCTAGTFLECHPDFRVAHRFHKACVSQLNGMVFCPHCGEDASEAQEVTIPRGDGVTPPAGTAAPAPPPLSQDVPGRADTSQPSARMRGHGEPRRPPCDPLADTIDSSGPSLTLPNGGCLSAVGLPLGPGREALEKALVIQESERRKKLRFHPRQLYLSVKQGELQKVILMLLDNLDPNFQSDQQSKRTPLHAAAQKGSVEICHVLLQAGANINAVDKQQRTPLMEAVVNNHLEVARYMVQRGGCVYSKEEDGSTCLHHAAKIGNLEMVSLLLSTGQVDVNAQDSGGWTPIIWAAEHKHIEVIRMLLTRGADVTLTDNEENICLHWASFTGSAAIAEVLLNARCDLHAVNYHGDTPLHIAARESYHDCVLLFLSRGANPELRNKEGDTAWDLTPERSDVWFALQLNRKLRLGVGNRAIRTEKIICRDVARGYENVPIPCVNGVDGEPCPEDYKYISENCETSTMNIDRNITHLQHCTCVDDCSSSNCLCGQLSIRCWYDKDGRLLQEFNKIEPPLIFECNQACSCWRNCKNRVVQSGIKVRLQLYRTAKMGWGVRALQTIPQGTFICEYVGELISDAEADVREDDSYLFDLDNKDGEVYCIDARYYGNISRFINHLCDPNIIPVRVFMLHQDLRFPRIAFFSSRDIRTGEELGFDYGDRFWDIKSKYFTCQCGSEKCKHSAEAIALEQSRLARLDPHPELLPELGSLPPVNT
# HUDEP-2 cells = assay: RNA-seq analysis of HUDEP-2 cells; format: cell-based, human
# Procedure: Total RNAs were extracted using an RNeasy Plus Mini Kit (QIAGEN). RNA-seq experiments were performed by GENEWIZ or Rhelixa. Gene Ontology (GO) analysis in Supplementary Fig. 7a, the statistical test was performed by Wallenius in goseq software. In Supplementary Tables 8(1-3), the statistical test (adjp) was determined using multiple comparisons analysis, Benjamini-Hochberg adjusted FDR test of the default of AltAnalyze (Ver. 2.0).
# [2] = test system: α-, β-, εy-, and βh1-globin mRNA in peripheral blood; assay: Globin mRNA levels in peripheral blood of treated mice; format: in vivo; details: mouse peripheral blood
# Procedure: as §1
# C57BL/6 mice (6–8 weeks old, female, six mice/group) were purchased from Tokyo Laboratory Animals Science. The mice were fed a standard laboratory diet and housed in a temperature-controlled room under specific pathogen-free conditions. A combination anesthetic was prepared with 0.3 mg/kg medetomidine, 4.0 mg/kg midazolam, and 5.0 mg/kg butorphanol.
# Mice were injected intraperitoneally with 0, 20, or 50 mg/kg RK-701 for 5 consecutive days, followed by 2 days off. The dosing solution contained 15% DMSO, 17.5% Cremophor EL, 8.75% EtOH, 8.75% HCO-40, and 50% PBS. Blood samples were collected once a week by Retro Orbital Sampling (75 μL Calibrated Micropipette; Drummond Scientific Company) during isoflurane anesthesia. Blood RNA was extracted using NucleoSpin RNA Blood (Takara Bio Inc.). The weight of each mouse was measured every 3 or 4 days.
# [3] = test system: BGLT3 RNA in HUDEP-2 cells; assay: RT-qPCR of BGLT3 in HUDEP-2 cells; format: cell-based, human; details: HUDEP-2, 4 days
# Procedure: as §1
smiles,measurement,setting,value
Cc1c(C(=O)NC(CCC2CC2)C(=O)Nc2ccc(C#N)cc2)[nH]c2c1C(=O)CC(C)(C)C2 (centres unmarked) [RK-701],Relative expression of β-globin mRNA,"[1]; day 10, 0.03 μM",1.223 and 0.7981 and 0.7056
same,Relative expression of β-globin mRNA,"[1]; day 10, 0.3 μM",0.5093 and 0.3419 and 0.622
same,Relative expression of β-globin mRNA,"[1]; day 10, 1 μM",0.5724 and 0.4098 and 0.587
same,Relative expression of γ-globin mRNA,"[1]; day 10, 1 μM",13.541 and 15.6231 and 17.881
same,Relative expression of γ-globin mRNA,"[1]; day 10, 3 μM",10.2007 and 14.1812 and 14.9315
same,inhibitory activity against G9a and GLP relative to other methyltransferases,G9a,"over 1,000 fold"
same,FoldChange KDM1A,HUDEP-2 cells,0.88±0.00
same,α-globin mRNA fold change relative to Gapdh,"[2]; 1W, 20 mg/kg i.p.",0.9065 and 1.412 and 0.8941 and 0.7397 and 1.287 and 0.7227
same,βh1-globin mRNA fold change relative to Gapdh,"[2]; 1W, 50 mg/kg i.p.",3.072 and 2.378 and 2.567 and 3.629 and 1.934
same,βh1-globin mRNA fold change relative to Gapdh,"[2]; 2W, 50 mg/kg i.p.",0.5599 and 0.8088 and 0.9568 and 1.059 and 0.8771
same,α-globin mRNA fold change relative to Gapdh,"[2]; 3W, 20 mg/kg i.p.",1.593 and 1.758 and 1.923 and 1.049 and 1.772 and 1.455
same,β-globin mRNA fold change relative to Gapdh,"[2]; 3W, 20 mg/kg i.p.",0.9789 and 1.849 and 1.324 and 1.562 and 1.61 and 1.707
same,α-globin mRNA fold change relative to Gapdh,"[2]; 3W, 50 mg/kg i.p.",2.567 and 2.368 and 2.185 and 2.462 and 1.695
same,β-globin mRNA fold change relative to Gapdh,"[2]; 3W, 50 mg/kg i.p.",2.4941 and 2.468 and 1.829 and 2.814 and 2.31
same,α-globin mRNA fold change relative to Gapdh,"[2]; 4W, 50 mg/kg i.p.",1.087 and 1.644 and 1.797 and 1.611 and 0.9245
same,β-globin mRNA fold change relative to Gapdh,"[2]; 4W, 50 mg/kg i.p.",2.2576 and 2.59 and 1.621 and 1.495 and 2.305
same,α-globin mRNA fold change relative to Gapdh,"[2]; 5W, 20 mg/kg i.p.",1.653 and 1.045 and 1.677 and 1.091 and 2.038
same,β-globin mRNA fold change relative to Gapdh,"[2]; 5W, 20 mg/kg i.p.",1.838 and 1.193 and 1.647 and 1.516 and 1.068
same,Relative expression of BGLT3 RNA,[3]; 0.03 μM,1.538 and 1.1863 and 2.024
same,Relative expression of BGLT3 RNA,[3]; 0.1 μM,1.802 and 1.732 and 2.119
same,Relative expression of BGLT3 RNA,[3]; 0.3 μM,2.469 and 1.707 and 2.074
same,Relative expression of BGLT3 RNA,[3]; 1 μM,2.525 and 1.865 and 3.156
same,Relative expression of BGLT3 RNA,[3]; 3 μM,1.6605 and 2.017 and 2.232
